From patent EP3765450B1, “AGONISTS OF PEROXISOME PROLIFERATOR-ACTIVATED RECEPTOR ALPHA AND METHODS OF USE” (dated 2026)

Sequences of proteins named here, by UniProt entry; tags and fusion partners are left off.
UniProt Q07869, whole entry: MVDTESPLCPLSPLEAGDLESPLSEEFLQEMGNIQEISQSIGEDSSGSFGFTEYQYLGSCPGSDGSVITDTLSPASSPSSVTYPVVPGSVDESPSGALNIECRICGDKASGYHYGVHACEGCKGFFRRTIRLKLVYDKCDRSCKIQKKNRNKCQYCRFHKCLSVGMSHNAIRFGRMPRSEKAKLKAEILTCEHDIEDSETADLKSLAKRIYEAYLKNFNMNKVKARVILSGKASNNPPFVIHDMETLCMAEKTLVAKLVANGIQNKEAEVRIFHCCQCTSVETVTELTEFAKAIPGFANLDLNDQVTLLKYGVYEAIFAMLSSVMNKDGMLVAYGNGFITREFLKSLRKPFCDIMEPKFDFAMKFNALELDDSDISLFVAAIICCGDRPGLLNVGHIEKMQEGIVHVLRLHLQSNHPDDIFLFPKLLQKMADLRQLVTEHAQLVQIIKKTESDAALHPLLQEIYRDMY

Key:
hPPARα = hPPARα (Homo sapiens, UniProt Q07869); test: PPARα luciferase cell reporter assay (Indigo Biosciences); details: hPPARα vs hPPARδ and hPPARγ, in words
[1] = test system: human retinal capillary endothelial cells (HRCEC); test: in vitro wound healing assay; details: 10 h and 24 h incubation
PPARα = test: Western blot analysis of PPARα expression in 661W cells; details: 24 h, 10 µM, 50 µM and 100 µM
[2] = STZ-rat model of diabetic retinopathy, liver phenotype and tolerability
retinal vascular leakage = test: STZ-rat model of diabetic retinopathy, retinal permeability

| isoform selectivity profile (hPPARα) | bioavailability (retinal vascular leakage; inferred from efficacy after systemic administration) | Compound | wound closure [1] | expression of PPARα (PPARα) | safety profile ([2]; after daily injection for one-month) | hepatomegaly ([2]; diabetic rats, daily i.p. injection for 26-28 days) | retinal vascular leakage (retinal vascular leakage; diabetic rats (STZ 55 mg/kg), daily i.p. injection for 26-28 days) |
| --- | --- | --- | --- | --- | --- | --- | --- |
| maintains the selectivity |  | COc1ccc(COc2ccc(CNc3cccc(C(=O)O)c3)c(OCc3ccc(OC)cc3)c2)cc1 |  |  |  |  |  |
|  | is bioavailable | COc1ccc(COc2ccc(CNc3cccc(C(=O)O)c3)cc2)cc1 | inhibits wound closure in a dose-dependent fashion | induced the expression of PPARα in a dose-dependent manner | no observable toxicity | seems to lack signs of hepatomegaly | reduces retinal vascular leakage in diabetic rats |
| pan-agonist profile was maintained |  | COc1ccc(COc2ccc(CNc3cccc(OC(C)(C)C(=O)O)c3)c(OCc3ccc(OC)cc3)c2)cc1 |  |  |  |  |  |
